#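 96-well plates; 48 h exposure; 5 concentrations. Endpoints by linear interpolation between flanking doses. Not reached: highest tested concentration assigned. GI50 marks 50% less growth. TGI is the concentration that stops growth completely.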
# Tests used:
# Test in all cases: NCI tumour cell line growth inhibition, 48 h
# T-47D breast = tested on: T-47D breast
# SF-295 CNS = tested on: SF-295 CNS
# BT-549 breast = tested on: BT-549 breast
# SNB-19 CNS = tested on: SNB-19 CNS
# HS 578T breast = tested on: HS 578T breast
# SK-MEL-2 melanoma = tested on: SK-MEL-2 melanoma
# SK-MEL-5 melanoma = tested on: SK-MEL-5 melanoma
# 786-0 renal = tested on: 786-0 renal
# MALME-3M melanoma = tested on: MALME-3M melanoma
# HT29 colon = tested on: HT29 colon
# EKVX NSCLC = tested on: EKVX NSCLC
# SN12C renal = tested on: SN12C renal
# U251 CNS = tested on: U251 CNS
# MDA-N = tested on: MDA-N
# A498 renal = tested on: A498 renal
# OVCAR-3 ovarian = tested on: OVCAR-3 ovarian
# RXF 393 renal = tested on: RXF 393 renal
# NCI/ADR-RES ovarian = tested on: NCI/ADR-RES ovarian
# RPMI-8226 leukemia = tested on: RPMI-8226 leukemia
# NCI-H522 lung = tested on: NCI-H522 lung
# OVCAR-4 ovarian = tested on: OVCAR-4 ovarian
# MCF7 breast = tested on: MCF7 breast
# OVCAR-8 ovarian = tested on: OVCAR-8 ovarian
# CAKI-1 renal = tested on: CAKI-1 renal
# UACC-62 melanoma = tested on: UACC-62 melanoma
# MDA-MB-435 = tested on: MDA-MB-435
# M14 melanoma = tested on: M14 melanoma
# SK-MEL-28 melanoma = tested on: SK-MEL-28 melanoma
# SF-539 CNS = tested on: SF-539 CNS
# NCI-H23 lung = tested on: NCI-H23 lung
# NCI-H322M lung = tested on: NCI-H322M lung
# IGROV1 ovarian = tested on: IGROV1 ovarian
# DU-145 prostate = tested on: DU-145 prostate
# LOX IMVI melanoma = tested on: LOX IMVI melanoma
# SNB-75 CNS = tested on: SNB-75 CNS
# OVCAR-5 ovarian = tested on: OVCAR-5 ovarian
# A549 NSCLC = tested on: A549 NSCLC
# KM12 colon = tested on: KM12 colon
# MDA-MB-231 breast = tested on: MDA-MB-231 breast
# NCI-H226 lung = tested on: NCI-H226 lung
# TK-10 renal = tested on: TK-10 renal
# MOLT-4 leukemia = tested on: MOLT-4 leukemia
# HOP-92 NSCLC = tested on: HOP-92 NSCLC
# HOP-62 NSCLC = tested on: HOP-62 NSCLC
# SF-268 CNS = tested on: SF-268 CNS
# UO-31 renal = tested on: UO-31 renal
# HL-60(TB) leukemia = tested on: HL-60(TB) leukemia
# ACHN renal = tested on: ACHN renal
# COLO 205 colon = tested on: COLO 205 colon
# PC-3 prostate = tested on: PC-3 prostate
# HCT-15 colon = tested on: HCT-15 colon
# SK-OV-3 ovarian = tested on: SK-OV-3 ovarian
# SW-620 colon = tested on: SW-620 colon
# HCT-116 colon = tested on: HCT-116 colon
structure (smiles),measurement,setting,value
O=[As]c1ccc(S(=O)(=O)NCCO)cc1 (stereo not drawn),GI50,T-47D breast,> 100 µM
same,TGI,T-47D breast,> 100 µM
same,GI50,SF-295 CNS,> 100 µM
same,TGI,SF-295 CNS,> 100 µM
same,GI50,BT-549 breast,> 100 µM
same,TGI,BT-549 breast,> 100 µM
same,GI50,SNB-19 CNS,> 100 µM
same,TGI,SNB-19 CNS,> 100 µM
same,GI50,HS 578T breast,> 100 µM
same,TGI,HS 578T breast,> 100 µM
same,GI50,SK-MEL-2 melanoma,> 100 µM
same,TGI,SK-MEL-2 melanoma,> 100 µM
same,GI50,SK-MEL-5 melanoma,> 100 µM
same,TGI,SK-MEL-5 melanoma,> 100 µM
same,GI50,786-0 renal,> 100 µM
same,TGI,786-0 renal,> 100 µM
same,GI50,MALME-3M melanoma,> 100 µM
same,TGI,MALME-3M melanoma,> 100 µM
same,GI50,HT29 colon,> 100 µM
same,TGI,HT29 colon,> 100 µM
same,GI50,EKVX NSCLC,> 100 µM
same,TGI,EKVX NSCLC,> 100 µM
same,GI50,SN12C renal,> 100 µM
same,TGI,SN12C renal,> 100 µM
same,GI50,U251 CNS,> 100 µM
same,TGI,U251 CNS,> 100 µM
same,GI50,MDA-N,> 100 µM
same,TGI,MDA-N,> 100 µM
same,GI50,A498 renal,> 100 µM
same,TGI,A498 renal,> 100 µM
same,GI50,OVCAR-3 ovarian,> 100 µM
same,TGI,OVCAR-3 ovarian,> 100 µM
same,GI50,RXF 393 renal,> 100 µM
same,TGI,RXF 393 renal,> 100 µM
same,GI50,NCI/ADR-RES ovarian,> 100 µM
same,TGI,NCI/ADR-RES ovarian,> 100 µM
same,GI50,RPMI-8226 leukemia,> 100 µM
same,TGI,RPMI-8226 leukemia,> 100 µM
same,GI50,NCI-H522 lung,> 100 µM
same,TGI,NCI-H522 lung,> 100 µM
same,GI50,OVCAR-4 ovarian,> 100 µM
same,TGI,OVCAR-4 ovarian,> 100 µM
same,GI50,MCF7 breast,> 100 µM
same,TGI,MCF7 breast,> 100 µM
same,GI50,OVCAR-8 ovarian,> 100 µM
same,TGI,OVCAR-8 ovarian,> 100 µM
same,GI50,CAKI-1 renal,> 100 µM
same,TGI,CAKI-1 renal,> 100 µM
same,GI50,UACC-62 melanoma,> 100 µM
same,TGI,UACC-62 melanoma,> 100 µM
same,GI50,MDA-MB-435,> 100 µM
same,TGI,MDA-MB-435,> 100 µM
same,GI50,M14 melanoma,> 100 µM
same,TGI,M14 melanoma,> 100 µM
same,GI50,SK-MEL-28 melanoma,> 100 µM
same,TGI,SK-MEL-28 melanoma,> 100 µM
same,GI50,SF-539 CNS,> 100 µM
same,TGI,SF-539 CNS,> 100 µM
same,GI50,NCI-H23 lung,> 100 µM
same,TGI,NCI-H23 lung,> 100 µM
same,GI50,NCI-H322M lung,> 100 µM
same,TGI,NCI-H322M lung,> 100 µM
same,GI50,IGROV1 ovarian,> 100 µM
same,TGI,IGROV1 ovarian,> 100 µM
same,GI50,DU-145 prostate,> 100 µM
same,TGI,DU-145 prostate,> 100 µM
same,GI50,LOX IMVI melanoma,> 100 µM
same,TGI,LOX IMVI melanoma,> 100 µM
same,GI50,SNB-75 CNS,> 100 µM
same,TGI,SNB-75 CNS,> 100 µM
same,GI50,OVCAR-5 ovarian,> 100 µM
same,TGI,OVCAR-5 ovarian,> 100 µM
same,GI50,A549 NSCLC,> 100 µM
same,TGI,A549 NSCLC,> 100 µM
same,GI50,KM12 colon,> 100 µM
same,TGI,KM12 colon,> 100 µM
same,GI50,MDA-MB-231 breast,> 100 µM
same,TGI,MDA-MB-231 breast,> 100 µM
same,GI50,NCI-H226 lung,> 100 µM
same,TGI,NCI-H226 lung,> 100 µM
same,GI50,TK-10 renal,> 100 µM
same,TGI,TK-10 renal,> 100 µM
same,GI50,MOLT-4 leukemia,> 100 µM
same,TGI,MOLT-4 leukemia,> 100 µM
same,GI50,HOP-92 NSCLC,> 100 µM
same,TGI,HOP-92 NSCLC,> 100 µM
same,GI50,HOP-62 NSCLC,> 100 µM
same,TGI,HOP-62 NSCLC,> 100 µM
same,GI50,SF-268 CNS,> 100 µM
same,TGI,SF-268 CNS,> 100 µM
same,GI50,UO-31 renal,> 100 µM
same,TGI,UO-31 renal,> 100 µM
same,GI50,HL-60(TB) leukemia,> 100 µM
same,TGI,HL-60(TB) leukemia,> 100 µM
same,GI50,ACHN renal,> 100 µM
same,TGI,ACHN renal,> 100 µM
same,GI50,COLO 205 colon,> 100 µM
same,TGI,COLO 205 colon,> 100 µM
same,GI50,PC-3 prostate,> 100 µM
same,TGI,PC-3 prostate,> 100 µM
same,GI50,HCT-15 colon,> 100 µM
same,TGI,HCT-15 colon,> 100 µM
same,GI50,SK-OV-3 ovarian,> 100 µM
same,TGI,SK-OV-3 ovarian,> 100 µM
same,GI50,SW-620 colon,> 100 µM
same,TGI,SW-620 colon,> 100 µM
same,GI50,HCT-116 colon,> 100 µM
same,TGI,HCT-116 colon,> 100 µM
